This note sets out measurements from PubChem BioAssay AID1985 (Southern Research Specialized Biocontainment Screening …, 2009).

This is a selection; strong and weak results do not stand in their true shares. Results with a measured potency or affinity are listed apart. Some results for these compounds are left out of this collection, so the calls shown say nothing about other tests. Calls of active or inactive are those of the source. How the calls were made is not given here.

One may read the inhibition as the change of the read-out against control, counted positive when it falls.

A short description of this test: PhoP regulon inhibitor project modified counter assay, GFP fluorescence readout, dose response (AID 1985). The settings on record: S. Typhi, 4 h; at 150 µM (top of the series).
In the case of `COc1ccc(C(=O)NCC2(N(C)C)CCCCC2)cc1`, the inhibition is inactive: -8.98%.
